In PubChem BioAssay AID588676 (Johns Hopkins Ion Channel Center, 2011):
This is a selection; strong and weak results do not stand in their true shares. Some of these compounds have results that are not shown, active ones among them. Calls of active or inactive are those of the source.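 How the source made its calls: active means calcium-response B-score plate-corrected more than 3 library SD below zero, starting fluorescence within 5 deviations, no agonist response on first addition; inactive means the rest.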

Protein sequences, listed by entry. Tags and fused reporters are not part of them.
UniProt Q96LB2, whole entry: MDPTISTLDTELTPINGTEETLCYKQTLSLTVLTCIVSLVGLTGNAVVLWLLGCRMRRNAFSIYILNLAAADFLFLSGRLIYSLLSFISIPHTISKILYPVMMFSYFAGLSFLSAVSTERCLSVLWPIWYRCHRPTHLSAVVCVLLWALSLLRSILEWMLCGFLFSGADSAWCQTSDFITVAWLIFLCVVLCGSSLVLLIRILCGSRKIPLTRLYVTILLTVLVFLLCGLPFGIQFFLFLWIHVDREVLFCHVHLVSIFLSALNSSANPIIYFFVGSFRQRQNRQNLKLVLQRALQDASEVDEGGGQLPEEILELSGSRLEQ

Molecular target: Mas-related G-protein coupled receptor member X1 (Homo sapiens) (UniProt Q96LB2)
Test: antagonists of human MrgX1 receptor, primary screen, HEK293 cells, Fluo-4 calcium flux (AID 588676);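 on B-score: peak minus trough fluorescence over baseline after final BAM8-22 challenge near maximal dose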
Conditions: Fluo-4, BAM8-22 antagonism, at 10 µM; stronger effect = lower value

Structure (SMILES)	outcome	B-score
CN(C)C1(CNC(=O)c2ccc(Br)cc2)CCCCC1	inactive	–
COc1cc(C(=O)NCC2(N(C)C)CCCCC2)c([N+](=O)[O-])cc1OC	inactive	–
COc1ccc(Cl)cc1C(=O)NCC1(N(C)C)CCCCC1	inactive	–
COc1cccc(C(=O)NCC2(N3CCCCC3)CCCCC2)c1	inactive	–
O=C(NCC1(N2CCCCC2)CCCCC1)c1cccc(Cl)c1	inactive	–
O=C(OC1CN2CCC1CC2)C(CO)(c1ccccc1)c1ccccc1 (stereo not given)	inactive	–
COc1ccc(Br)c(C(=O)NCC2(N3CCCCC3)CCCCC2)c1	inactive	–
CN(C)c1cccc(C(=O)NCC2(N(C)C)CCCCC2)c1	inactive	–
CC(C)Oc1ccc(C(=O)NCC2(N(C)C)CCCCC2)cc1	inactive	–
O=C(NCC1(N2CCCCC2)CCCCC1)c1cc([N+](=O)[O-])ccc1Cl	inactive	–
CN1[C@@H]2CC[C@H]1CC(OC(=O)C(O)(c1ccccc1)c1ccccc1)C2 (stereo not given in full)	inactive	–
CC(C)N1C(=O)CC2(CCN(CCOC(=O)C(O)(c3ccccc3)c3ccccc3)CC2)C1=O	inactive	–
COc1cc(SC)ccc1C(=O)NCC1(N(C)C)CCCCC1	inactive	–
CCCCC(CC)C(=O)N1CCN(C/C=C/c2ccccc2)CC1 (stereo not given)	–	active: -4.88
CCN(CC)CC(C)C(C)OC(=O)C(O)(c1ccccc1)c1ccccc1 (stereo not given)	inactive	–
Cc1ccc(C(=O)NCC2(N3CCCCC3)CCCCC2)cc1	inactive	–
CN(C)C1CCCC1OC(=O)C(O)(c1ccccc1)c1ccccc1 (stereo not given)	inactive	–
CN(C)c1ccc(C(=O)NCC2(N(C)C)CCCCC2)cc1	inactive	–
Cc1ccccc1C(=O)NCC1(N2CCCCC2)CCCCC1	inactive	–
O=C(NCC1(N2CCCCC2)CCCCC1)c1cc(F)c(F)cc1Cl	inactive	–
C=CCN1CCN(CCOC(=O)C(O)(c2ccccc2)c2ccccc2)CC1	inactive	–
O=C(NCC1(N2CCCCC2)CCCCC1)c1cccc(Br)c1	inactive	–
Cc1cc(C(=O)NCC2(N3CCCCC3)CCCCC2)ccc1[N+](=O)[O-]	inactive	–
CCN1CCCC(OC(=O)C2(O)c3ccccc3C=Cc3ccccc32)C1 (stereo not given)	inactive	–
COc1ccc(C(=O)NCC2(N(C)C)CCCCC2)cc1	inactive	–
